{
  "source": "patent US20040086900A1",
  "about": "“Cloning of mammalian genes in microbial organisms and methods for pharmacological screening” (priority 1990, published 2004)",
  "tested_on": "yeast containing RAS2^va119 expressing rat DPD gene",
  "settings": "RAS2^va119 host, cells incubated in agent",
  "data": [
    {"smiles": "COc1ccc(C2CNC(=O)C2)cc1OC1CCCC1", "note": "(stereo not shown) [Rolipram]", "values": [
      {"measurement": "Reversal of heat shock resistance conferred by rat DPD", "result": "become heat shock sensitive again"}
    ]}
  ]
}
